System: NB1 cells
Assay: Crizotinib titration and co-titration with ALK antibodies, killing of NB1 cells
Type: cell-based, human
Details: titration of crizotinib alone

SMILES: C[C@@H](Oc1cc(-c2cnn(C3CCNCC3)c2)cnc1N)c1c(Cl)ccc(F)c1Cl [crizotinib, reference compound]
- killing of NB1 cells: dose-dependent killing
